System: Nc1ncnc2c1ncn2[C@@H]1O[C@H](COP(=O)(O)OP(=O)(O)OP(=O)(O)O)[C@@H](O)[C@H]1O
Assay: purified protein
Conditions: proteoliposomes of E. coli lipids, 10 mM MgCl2, pH 8, 37 °C, cooperative fit, nH 1.73

PatA/PatB (Streptococcus pneumoniae R6)
Km: 2830 ± 500 µM

Source: publication PMC5797166, “A multidrug ABC transporter with a taste for GTP” (Scientific Reports, 2018)
